Data reported in patent US9522910B2, “Protein kinase inhibitors (variants), use thereof in treating oncological diseases and a pharmaceutical composition based thereon” (Obshchestvo s ogranichennoy otvetstvennostyou “Fusion …, priority 2011, dated 2016).

Test system: K562 human chronic myelogenous leukemia cells
Assay: Antiproliferative activity on K562 cells (MTT)
Settings: read-out: K562 IC50; compound concentration that causes 2-times reduction of viable cells; 3 days
Procedure: Moreover, antiproliferative activity of the compounds of the present invention can be studied on K562 human chronic myelogenous leukemia cells.
Human myelogenous leukemia K562 cells K562 were cultivated in RPMI 1640 growth medium. K562 cells were transferred to 96-well plated in duplicated (final concentration 2×10^4 cells/ml) and testing compound solution in growth medium was added at different concentrations (final volume is 100 μl per well). Solid compounds were first dissolved in DMSO, then the solution was diluted with DMSO to necessary concentration, mixed with equal volume of growth medium and was transferred to cell plates. The final compound concentrations of compounds was 0.5 nM to 10 μM. DMSO at same percentage is used as control. After compound was incubated with cells for 3 days, the numbers of active cells are measured. It was achieved by removing old medium, addition of 100 μl of fresh medium and 20 μl MIT solution containing 5 mg/ml PBS. Plates was incubated for 2 h at 37° C., then 100 μl DMSO was added at each well and stirred for 1 min. Then the absorbance was measured at 570 nm and percent of proliferation inhibition related to the control (without testing compounds) was determined.

IC50: < 100 nM
SMILES: Cc1ccc(C(=O)Nc2ccc(CN3CCN(C)CC3)c(C(F)(F)F)c2)cc1C#Cn1cnc2ccccc21
